Values quoted from earlier work in patent US12053452B2 (priority 2021, dated 2024).

Details: human urine, after racemic MDMA; cited from earlier work

| Substance | enantiomer with higher Cmax |
| --- | --- |
| 3,4-dihydroxymethamphetamine | Higher R-enantiomer Cmax |
| (±)-4-hydroxy-3-methoxymethamphetamine | S-enantiomers were higher |
